Results published in article PMC5147500.

Molecular target: Full-length retromer complex (VPS26-VPS29-VPS35) (UniProt O75436)
Test: SEC-MALS

- stoichiometry N: 2
Substance: Full-length retromer complex (VPS26-VPS29-VPS35) (from UniProt O75436-1 1-327; Q9UBQ0 1-182; Q96QK1 1-796)
